Reference: article PMC10541190 (The Journal of Clinical Investigation, 2023)
Like-named read-outs stand apart in the source and are kept apart here.

Experiments:
Huh7 cells = details: human
ErbB4 = details: cited from earlier work
ErbB2 (HER2) = ErbB2 (HER2) (Homo sapiens, UniProt P04626); format: biochemical
ErbB2 = details: cited from earlier work
in vitro = details: human, Huh7 cell viability (%)

[N-]=[N+]=CC(=O)OC[C@H](N)C(=O)O [Azaserine]
Huh7 cell viability (%) (Huh7 cells; 10 µM): 57.42%

CNc1ccc2oc(C[C@H]3O[C@@]4(CC[C@H]3C)O[C@H]([C@H](C)C(=O)c3ccc[nH]3)[C@H](C)C[C@H]4C)nc2c1C(=O)O [Calci-mycin]
Cell viability (%) (Vero cells; 20 μM): 87.78%

CNc1ccc2oc(C[C@H]3O[C@@]4(CC[C@H]3C)O[C@H]([C@H](C)C(=O)c3ccc[nH]3)[C@H](C)C[C@H]4C)nc2c1C(=O)O [Calcimycin]
Huh7 cell viability (%) (Huh7 cells; 0.37 µM): 97.49%

CS(=O)(=O)CCNCc1ccc(-c2ccc3ncnc(Nc4ccc(OCc5cccc(F)c5)c(Cl)c4)c3c2)o1 [Lapatinib]
% of control, ErbB4 (ErbB4): 10.8 nM 0.2%
anti-ErbB2 activity (ErbB2 (HER2)): confirmed its anti-ErbB2 activity
% of control, ErbB2 (ErbB2): 35.1 nM 0%

COc1ccc2cc1Oc1ccc(cc1)C[C@H]1c3cc(c(OC)cc3CCN1C)Oc1c(OC)c(OC)cc3c1[C@H](C2)N(C)CC3 [Tetran-drine]
Cell viability (%) (Vero cells; 0.625 μM): 102.48%

COc1ccc2cc1Oc1ccc(cc1)C[C@H]1c3cc(c(OC)cc3CCN1C)Oc1c(OC)c(OC)cc3c1[C@H](C2)N(C)CC3 [Tetrandrine, Berbaman, 6,6',7, 12-tetramethoxy-2,2'-dimethyl-, (1β)-]
Huh7 cell viability (%) (Huh7 cells; 0.37 µM): 95.71%
viability at 0.37 µM (in vitro): 96.2%
